AlphaSeq binding of Ab-91 heavy chain variants to a spike HR2 peptide

The measurements come from Engelhart et al. 2022 (doi:10.1038/s41597-022-01779-4) through the FLAb antibody collection.

Target: peptide PDVDLGDISGINAS, taken from heptad repeat 2 (HR2) of SARS-CoV-2 spike.

Ab-91 is the parent antibody, in scFv form: VL, then a (GGGGS)3 linker, then VH. The light chain is unchanged in all variants.
VL: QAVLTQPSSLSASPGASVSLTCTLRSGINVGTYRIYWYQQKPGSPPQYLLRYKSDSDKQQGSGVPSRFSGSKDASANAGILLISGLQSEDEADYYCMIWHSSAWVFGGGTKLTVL
VH: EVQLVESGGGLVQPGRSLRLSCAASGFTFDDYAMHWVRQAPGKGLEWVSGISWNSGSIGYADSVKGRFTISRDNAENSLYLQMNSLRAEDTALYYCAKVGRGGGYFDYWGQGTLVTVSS

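The parent was found by panning a naive human phage display library on the peptide. AAYL51 was designed without a model: most single CDR substitutions and a random sample of double and triple ones. In AlphaSeq, yeast of one mating type display the scFv and yeast of the other type display the target. Mating (16 h, 30 °C) was followed by selection of diploids and sequencing of their barcodes. Each replicate has its own calibration line, from reference interactions of the BCL2 family. Each pool was mated in three replicate cultures.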

Each variant's VH is given in full.
Affinities are written as log10 Kd with Kd in nM; a lower number is a better binder.
"nd" marks a missing value. The strain was present, yet no cells mated with the target were sequenced in that replicate, which points to weak or no binding.
Three control strains display no target. For library AAYL51, 21% of the pairings with them gave a signal, with a median of 4.54 and one signal in twenty below 3.26, so weak values seen in few replicates may be background. Also given: how often the same scFv was detected with the empty control strains, with their mean in brackets.

VH	replicates, log10 nM	signal with controls
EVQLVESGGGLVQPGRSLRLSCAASQFTFDDYAMHWVRQAPGKGLEWVSGESWNSGSIGYADSVKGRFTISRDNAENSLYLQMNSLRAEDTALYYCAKVGRGGGYFHYWGQGTLVTVSS	nd / nd / nd	1/9 (3.35)
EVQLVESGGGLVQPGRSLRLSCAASGFTFMDYAMHWVRQAPGKGLEWVSGISWNSGSIGYADSVKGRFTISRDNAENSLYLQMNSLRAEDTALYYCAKFGRGGGAFDYWGQGTLVTVSS	6.11 / 5.35 / nd	7/9 (4.65)
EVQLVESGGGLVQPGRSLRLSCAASGFTFDDYAMHWVRQAPGKGLEWVSGISWFGGSIGYADSVKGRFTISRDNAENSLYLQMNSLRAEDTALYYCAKVGRGRGYFDYWGQGTLVTVSS	5.93 / nd / nd	5/9 (4.45)
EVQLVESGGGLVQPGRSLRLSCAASGFHFDDYAMHWVRQAPGKGLEWVSGISWNSGSIGYADSKKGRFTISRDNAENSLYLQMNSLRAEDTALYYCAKVGRGGGYFDYWGQGTLVTVSS	nd / 4.47 / nd	0/9
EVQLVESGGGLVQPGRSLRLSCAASGFTFQDYAMHWVRQAPGKGLEWVSGISWNSGSIGYADSVPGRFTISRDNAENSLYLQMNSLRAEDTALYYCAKVGRGGGYFDEWGQGTLVTVSS	4.58 / nd / nd	0/9
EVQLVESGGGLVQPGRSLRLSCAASVFTFDDYAMHWVRQAPGKGLEWVSGISWNSGSIGYADPVKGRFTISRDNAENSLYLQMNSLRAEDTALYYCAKVGRGGGYFLYWGQGTLVTVSS	4.30 / 5.17 / 4.43	9/9 (5.07)
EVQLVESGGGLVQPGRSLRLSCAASCFTFDDYAMHWVRQAPGKGLEWVSGISWMSGSIGYADSVYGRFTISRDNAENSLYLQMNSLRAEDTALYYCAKVGRGGGYFDYWGQGTLVTVSS	2.91 / nd / nd	0/9
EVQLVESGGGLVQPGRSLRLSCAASGFTFDDYALQWVRQAPGKGLEWVSGISWNSGSIGYADSVKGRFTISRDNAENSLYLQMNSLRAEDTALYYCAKVGRGGGYFNYWGQGTLVTVSS	nd / 5.19 / nd	4/9 (4.03)
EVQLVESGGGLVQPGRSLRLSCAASGFTFDDYAMHWVRQAPGKGLEWVSGISWNSGSIGYADSVKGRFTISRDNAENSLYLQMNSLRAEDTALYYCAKGGRGGWNFDYWGQGTLVTVSS	nd / nd / nd	1/9 (4.27)
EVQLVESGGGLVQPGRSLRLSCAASGFTFDDYAMHWVRQAPGKGLEWVSWISWNEGSIGYADSVWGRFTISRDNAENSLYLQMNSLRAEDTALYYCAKVGRGGGYFDYWGQGTLVTVSS	5.14 / nd / nd	1/9 (5.53)
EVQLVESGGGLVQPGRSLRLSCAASGFTFDDYAMHWVRQAPGKGLEWVSGISWNSGFIGYADSVKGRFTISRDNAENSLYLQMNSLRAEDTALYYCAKVGRGGGVFDMWGQGTLVTVSS	2.64 / 3.29 / 2.66	0/9
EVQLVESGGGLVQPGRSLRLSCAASGFTFDDGAMHWVRQAPGKGLEWVSGISWNSGSIGYADSVEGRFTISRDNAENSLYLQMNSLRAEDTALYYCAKVPRGGGYFDYWGQGTLVTVSS	4.75 / nd / nd	4/9 (4.88)
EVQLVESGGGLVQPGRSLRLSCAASGFTFDDYAMHWVRQAPGKGLEWVSGISWNSGSIGYADSVKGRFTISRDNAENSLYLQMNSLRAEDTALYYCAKVHRGGAYIDYWGQGTLVTVSS	1.47 / 1.43 / 1.18	5/9 (4.19)
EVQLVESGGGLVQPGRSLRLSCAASGFTFRDYAMHWVRQAPGKGLEWVSGISWNSGSIGYADSVLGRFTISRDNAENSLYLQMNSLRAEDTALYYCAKVGRGGGYFDRWGQGTLVTVSS	1.69 / 1.42 / 1.48	1/9 (3.70)
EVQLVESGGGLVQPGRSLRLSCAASGFTFDDYAMHWVRQAPGKGLEWVSGISWNFGEIGYADSVKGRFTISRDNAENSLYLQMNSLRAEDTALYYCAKVRRGGGYFDYWGQGTLVTVSS	nd / nd / nd	1/9 (3.76)
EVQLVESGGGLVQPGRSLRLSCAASGFTFDDYAMHWVRQAPGKGLEWVSGISWNSGSIGYADSIKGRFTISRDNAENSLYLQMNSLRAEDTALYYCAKVGRCGGYPDYWGQGTLVTVSS	6.46 / 6.20 / nd	3/9 (6.05)
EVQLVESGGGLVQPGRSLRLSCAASGFTFDDYAMHWVRQAPGKGLEWVSGIGWNSGAIGYADSVKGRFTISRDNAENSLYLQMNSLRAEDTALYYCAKVGRGGGHFDYWGQGTLVTVSS	6.38 / 5.21 / nd	3/9 (4.25)
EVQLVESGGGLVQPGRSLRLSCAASGFTFDDYAHHWVRQAPGKGLEWVSGISWNSGSIGYADSTKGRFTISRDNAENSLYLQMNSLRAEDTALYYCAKVGRGGGSFDYWGQGTLVTVSS	5.69 / nd / nd	4/9 (4.38)
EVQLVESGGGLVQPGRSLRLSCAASGFTFDDYAMHWVRQAPGKGLEWVSGIKWNSGSIGYADSVKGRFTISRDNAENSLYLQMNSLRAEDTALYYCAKVYRGGGYDDYWGQGTLVTVSS	nd / nd / nd	2/9 (4.93)
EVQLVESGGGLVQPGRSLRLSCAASGFTFWDYAMHWVRQAPGKGLEWVSGISWNSGSIGYADSWKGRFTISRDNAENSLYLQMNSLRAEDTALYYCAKDGRGGGYFDYWGQGTLVTVSS	nd / nd / nd	0/9
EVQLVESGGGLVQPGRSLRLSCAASGFTHYDYAMHWVRQAPGKGLEWVSGISWNSGSIGYADSVKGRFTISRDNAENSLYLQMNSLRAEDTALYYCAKVRRGGGYFDYWGQGTLVTVSS	nd / nd / nd	3/9 (4.17)
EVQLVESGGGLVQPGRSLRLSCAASGFTFQDYAMHWVRQAPGKGLEWVSGISWNSASIGYADSVKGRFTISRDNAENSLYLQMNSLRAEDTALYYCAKVGRGGGYFDYWGQGTLVTVSS	0.79 / 1.17 / 1.46	0/9
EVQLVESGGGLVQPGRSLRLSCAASGFTFDFYAMHWVRQAPGKGLEWVSGISWNSGSISYKDSVKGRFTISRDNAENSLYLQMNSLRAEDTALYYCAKVGRGGGYFDYWGQGTLVTVSS	4.35 / nd / 4.93	1/9 (4.38)
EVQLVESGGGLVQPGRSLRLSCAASGFTFDDYAMHWVRQAPGKGLEWVSGISWNSGSIGYADSVKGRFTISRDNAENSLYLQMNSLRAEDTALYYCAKVGRWGGYFDVWGQGTLVTVSS	1.11 / 0.43 / 0.34	0/9
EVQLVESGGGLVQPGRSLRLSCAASGFTFDDYAMHWVRQAPGKGLEWVSGISWNSSSKGYADSVKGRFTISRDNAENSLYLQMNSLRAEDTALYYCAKVGRGGGYGDYWGQGTLVTVSS	nd / nd / nd	0/9

Picked from the list: the 2 lowest averages where every replicate gave a value.

VH,"replicates, log10 nM",signal with controls
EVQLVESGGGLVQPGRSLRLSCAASGFTFDDYAMHWVRQAPGKGLEWVSGISWNSGSIGYADSVKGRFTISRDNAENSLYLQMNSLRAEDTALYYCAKVGRWGGYFDVWGQGTLVTVSS,1.11 / 0.43 / 0.34,0/9
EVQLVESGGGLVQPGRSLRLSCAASGFTFQDYAMHWVRQAPGKGLEWVSGISWNSASIGYADSVKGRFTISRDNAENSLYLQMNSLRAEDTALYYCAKVGRGGGYFDYWGQGTLVTVSS,0.79 / 1.17 / 1.46,0/9